Binding of CDR-mutated scFvs to a peptide of the spike HR2 region

The measurements come from Li et al. 2023 (doi:10.1038/s41467-023-39022-2) through the FLAb antibody collection.

Binding partner: SARS-CoV-2 spike HR2 peptide, sequence PDVDLGDISGINAS.

The variants keep the light chain, the linker and the frameworks of Ab-14 (scFv order VH, the linker GGGGSGGGGSGGGGS, VL).
VH: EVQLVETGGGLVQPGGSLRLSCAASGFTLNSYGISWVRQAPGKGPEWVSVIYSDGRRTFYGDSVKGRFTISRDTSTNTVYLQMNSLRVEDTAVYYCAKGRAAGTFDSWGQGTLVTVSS
VL: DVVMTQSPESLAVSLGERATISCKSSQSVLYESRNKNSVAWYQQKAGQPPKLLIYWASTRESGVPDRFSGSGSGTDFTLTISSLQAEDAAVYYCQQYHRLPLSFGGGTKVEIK

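The parent was found by panning a naive human phage display library on the peptide. These sequences belong to a second round, designed from the earlier measurements on random variants of the parent. Group labels follow the data file (Ctrl: baseline library sampled from a position-specific scoring matrix, with some repeated check sequences; Rand: our label for a block that the file lists under HC and that is probably the random mutants of the ten best first-round binders; En: ensemble of fine-tuned language models; GP: Gaussian process model; GPLM: also part of the Gaussian process libraries; HC: hill climbing; Gen: genetic algorithm; Gibbs: Gibbs sampling; a sequence that several methods proposed may carry one label only). Affinity was read by AlphaSeq, a pooled yeast mating assay with surface-displayed partners. Binding brings cells together so that they mate, and sequencing counts the barcode pairs among the diploids. The ratio of observed to expected reads was calibrated, replicate by replicate, on BCL2-family standards whose Kd was known from biolayer interferometry. Each pool was mated in six replicate cultures.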

Substitutions are numbered in sequence along the VH above, starting at 1 (not Kabat).
This list holds designs with at most six substitutions.
Values are log10 of the apparent Kd in nM; lower means stronger binding.
A mean of the replicates is given; it leaves out those without a signal.
A pair that was not seen in any replicate is written "no signal"; this usually means weak binding, but a binder can also be missed.

For T28Q/G61H [GPLM_HC], the assay gave 1.68 (5 of 6 replicates; controls 0 of 18). Variant N30D/S31E/S53A/G61A/R100E/S107V [En_HC] gave -0.05 (6 of 6 replicates; controls 0 of 18). For T28S/G61Q/A101E [Ctrl+GPLM_Gen], the assay gave 0.23 (10 of 12 replicates; controls 0 of 36). With N30I/R100Q/D106R [Ctrl] the result was no signal (0 of 6 replicates; controls 0 of 18). Variant N30D/S63K [GPLM_HC] gave 1.89 (4 of 6 replicates; controls 0 of 18). With G26K/S31E/G61V/A101C [GP_HC] the result was no signal (0 of 6 replicates; controls 0 of 18).

Variant G61S/S63R/R100Q [GP_Gibbs] gave 1.14 (5 of 6 replicates; controls 0 of 18). With N30E/G61A/S63E [GPLM_Gen] the result was no signal (0 of 6 replicates; controls 0 of 18). For T28M/S31W/F59Q/G61I [Rand], the assay gave 2.21 (2 of 6 replicates; controls 0 of 18). Variant S31E/G61T/A101T/D106T [GP_HC] gave 1.00 (6 of 6 replicates; controls 1 of 18). Variant L29V/S53A/S63K [Ctrl] gave -0.04 (6 of 6 replicates; controls 1 of 18). For T28D/S63A/R100K/A101I [GP_Gen], the assay gave no signal (0 of 6 replicates; controls 0 of 18).

For T28E/R100V/A101T/S107T [GP_Gen], the assay gave -0.25 (6 of 6 replicates; controls 0 of 18). With T28E/S53A/S63Q/R100Q [GP_Gen] the result was 0.06 (6 of 6 replicates; controls 0 of 18). With S31M/A101E [Ctrl] the result was 1.12 (6 of 6 replicates; controls 0 of 18). For T28K/G61L/R100L/A101L [GP_HC], the assay gave 2.15 (4 of 6 replicates; controls 0 of 18). Variant T28S/S31E/R100T/S107K [GPLM_Gen] gave -0.14 (6 of 6 replicates; controls 0 of 18). With G26H/T28Q/S31E/A101Q [GPLM_Gibbs] the result was 1.04 (3 of 6 replicates; controls 0 of 18).

With T28S/S31E/F59V [GPLM_Gen] the result was -0.30 (6 of 6 replicates; controls 0 of 18). Variant T28S/S31E/S63Q/A101T/D106F [GP_Gibbs] gave 1.08 (1 of 6 replicates; controls 0 of 18). For N30D/R100H/S107V [GP_HC], the assay gave 0.66 (5 of 6 replicates; controls 0 of 18). Variant N30T/S35T/A102H [Ctrl] gave no signal (0 of 6 replicates; controls 0 of 18). With F27T/T28A/I34Y/F59G/A102G/T104I [Ctrl] the result was no signal (0 of 6 replicates; controls 0 of 18). With T28E/G61T/R100E/A101Q [GPLM_Gibbs] the result was 1.34 (5 of 6 replicates; controls 0 of 18).

Variant R56Q/G61K/A101T [GP_Gibbs] gave 0.34 (5 of 6 replicates; controls 0 of 18). Variant T28S/G61K/R100W [GPLM_Gen] showed 0.54 (3 of 6 replicates; controls 0 of 18). For T28S/S31M/G61K/A101T [GPLM_Gen], the assay gave no signal (0 of 6 replicates; controls 0 of 18). With N30E/S31D/G103L/D106I [Rand] the result was no signal (0 of 6 replicates; controls 0 of 18). With T28D/S31E/R56F [Ctrl] the result was 0.33 (6 of 6 replicates; controls 0 of 18). Variant T28Q/S63Q/A101T/S107T [GP_Gibbs] showed 1.36 (6 of 6 replicates; controls 0 of 18).

Variant G61S/R100S/S107T [GPLM_Gen] showed 0.67 (4 of 6 replicates; controls 0 of 18). Variant S31D/F59I/G61I [GPLM_HC] gave no signal (0 of 6 replicates; controls 0 of 18). Variant T28S/S31E/S63P/A101T/D106F [GP_Gibbs] showed no signal (0 of 6 replicates; controls 0 of 18). With T28W/S31E/G61H/T104F [GP_HC] the result was no signal (0 of 6 replicates; controls 0 of 18). Variant N30L/S31L [Ctrl] showed 3.73 (1 of 6 replicates; controls 1 of 18). Variant T28H/G61Q/A101T [GP_Gen] showed 1.66 (6 of 6 replicates; controls 0 of 18).

For S31Q/G61S/G103W/T104F [Rand], the assay gave 2.33 (3 of 6 replicates; controls 0 of 18). Variant S31E/G61T/S63R/R100E [GP_HC] showed 0.92 (6 of 6 replicates; controls 0 of 18). For T28D/S31E/S63Q [GP_HC], the assay gave 1.13 (6 of 6 replicates; controls 0 of 18). Variant T28D/F59M/G61D/A101Q [GP_Gibbs] gave 0.68 (6 of 6 replicates; controls 0 of 18).

For reference, 7 entries of the list once more:

changes	group	mean, log10 nM	seen in	signal with controls
N30E/S31D/G103L/D106I	Rand	no signal	0 of 6	0 of 18
T28M/S31W/F59Q/G61I	Rand	2.21	2 of 6	0 of 18
N30I/R100Q/D106R	Ctrl	no signal	0 of 6	0 of 18
T28S/G61K/R100W	GPLM_Gen	0.54	3 of 6	0 of 18
T28D/F59M/G61D/A101Q	GP_Gibbs	0.68	6 of 6	0 of 18
N30D/S63K	GPLM_HC	1.89	4 of 6	0 of 18
T28D/S63A/R100K/A101I	GP_Gen	no signal	0 of 6	0 of 18

Where one sequence has several entries in the source, the replicates are pooled.
As a blank, each scFv also met three strains without target: over all heavy chain designs, 1% of these pairings were detected, typically at 2.08 and seldom below 0.84. For each scFv, signals with the empty controls are counted beside the result.
In the paper, a design with two or fewer of six values counts as a poor binder.
A sequence measured in both rounds can read differently, since the two assays cover different ranges.
The parent sequence was in this pool as ten entries: three were never detected, three once, and four in most replicates, with averages from 0.34 to 2.37.